In PMC8348200, “Selective Antifungal Activity and Fungal Biofilm Inhibition of Tryptophan Center Symmetrical Short Peptide” (International Journal of Molecular Sciences, 2021):

Columns and labels:
E. coli 25922 = type: cell-based, Escherichia coli; conditions: MHB, 37 °C 24 h, peptides 0.5-128 μM; lowest concentration inhibiting 95% of growth; three independent experiments
Experimental: (§1) The peptide antimicrobial activity was determined according to the Clinical and Laboratory Standards Institute method, with modifications. Bacteria concentration was measured by ultraviolet spectrophotometer, and fungi concentration was confirmed by McMillan’s turbidimetric method, which compared the fungi solution with the standard McFarland tube in front of the horizontal line on the paper with the naked eye. Because the light has different refract in different liquids. The standard solution is composed of sulfuric acid and barium chloride, which is equivalent to 1*10^8 CFU fungi. After cultivation, the growth of fungi and bacteria was measured by TECAN automatic enzyme label instrument. Briefly, bacterial cells were cultured in MHB until logarithmic phase, yeast colonies cultured in Yeast Peptone Dextrose Agar (YPDA) were picked and diluted in RPMI 1640 growth medium buffered with morpholine propane sulfonic acid (MOPS), and then 50 μL of bacterial or fungi cell solution (0.5–1 × 10^4 CFU/mL) was added to each well of sterile 96-well plates. Each well contained 50 μL of AMPs dissolved in BSA; the final concentrations of the peptides ranged from 0.5 to 128 μM. The lowest concentration of peptide with no microbial growth being observed were measured after incubation at 37 °C for 24 h for bacteria or at 28 °C for 48 h for fungi. […]

E. coli UB1005 = type: cell-based, Escherichia coli; conditions: MHB, 37 °C 24 h, peptides 0.5-128 μM; lowest concentration inhibiting 95% of growth; three independent experiments
Experimental: as §1

Structure (SMILES): CC[C@H](C)[C@H](NC(=O)CN)C(=O)NCC(=O)N[C@@H](C)C(=O)N[C@H](C(=O)N[C@@H](CC(C)C)C(=O)N[C@@H](CCCCN)C(=O)N[C@H](C(=O)N[C@@H](CC(C)C)C(=O)N[C@H](C(=O)N[C@H](C(=O)NCC(=O)N[C@@H](CC(C)C)C(=O)N1CCC[C@H]1C(=O)N[C@@H](C)C(=O)N[C@@H](CC(C)C)C(=O)N[C@H](C(=O)N[C@@H](CO)C(=O)N[C@@H](Cc1c[nH]c2ccccc12)C(=O)N[C@H](C(=O)N[C@@H](CCCCN)C(=O)N[C@@H](CCCNC(=N)N)C(=O)N[C@@H](CCCCN)C(=O)N[C@@H](CCCNC(=N)N)C(=O)N[C@@H](CCC(N)=O)C(=O)N[C@@H](CCC(N)=O)C(N)=O)[C@@H](C)CC)[C@@H](C)CC)[C@@H](C)O)[C@@H](C)O)C(C)C)C(C)C [Melittin, reference compound]
- MICs, E. coli 25922 (E. coli 25922): 2 µM
- MICs, E. coli UB1005 (E. coli UB1005): 2 µM
